Laboratory results taken from ChEMBL document CHEMBL4715801, “Discovery of Mycobacterium tuberculosis InhA Inhibitors by Binding Sites Comparison and Ligands Prediction” (J Med Chem, 2016).

Assay: Inhibition of Mycobacterium tuberculosis InhA assessed as effect on NADH oxidation incubated for 10 mins by spectrophotometry

## Cc1c(CN(C)C(=O)/C=C/c2cnc3c(c2)CCC(=O)N3)c2ccccc2n1C
  IC50: 62 µM
